# Values quoted from earlier work in publication PMC6186498 (Toxicology, 2018).
# Tested on: kidney
# Details: directly administered cysteine conjugates; acute, sub-acute and sub-chronic exposure; ref Birner et al. 1997; Shirai et al. 2012; Vaidya et al. 2003; cited from earlier work
compound,measurement,value
"N[C@@H](CSC(Cl)=CCl)C(=O)O [DCVC, S-(1,2-dichlorovinyl)-cysteine]",doses at which most studies reported kidney effects,above 10 mg/kg
